Test results as given in patent US20250085300A1, “STABILITY-ENHANCING COMPOSITIONS AND METHODS OF PREPARING COMPOUNDS” (FOGHORN THERAPEUTICS INC., priority 2021, published 2025).

Sequences of proteins named here, by UniProt entry; tags and fusion partners are left off.
UniProt Q9H8M2, whole entry: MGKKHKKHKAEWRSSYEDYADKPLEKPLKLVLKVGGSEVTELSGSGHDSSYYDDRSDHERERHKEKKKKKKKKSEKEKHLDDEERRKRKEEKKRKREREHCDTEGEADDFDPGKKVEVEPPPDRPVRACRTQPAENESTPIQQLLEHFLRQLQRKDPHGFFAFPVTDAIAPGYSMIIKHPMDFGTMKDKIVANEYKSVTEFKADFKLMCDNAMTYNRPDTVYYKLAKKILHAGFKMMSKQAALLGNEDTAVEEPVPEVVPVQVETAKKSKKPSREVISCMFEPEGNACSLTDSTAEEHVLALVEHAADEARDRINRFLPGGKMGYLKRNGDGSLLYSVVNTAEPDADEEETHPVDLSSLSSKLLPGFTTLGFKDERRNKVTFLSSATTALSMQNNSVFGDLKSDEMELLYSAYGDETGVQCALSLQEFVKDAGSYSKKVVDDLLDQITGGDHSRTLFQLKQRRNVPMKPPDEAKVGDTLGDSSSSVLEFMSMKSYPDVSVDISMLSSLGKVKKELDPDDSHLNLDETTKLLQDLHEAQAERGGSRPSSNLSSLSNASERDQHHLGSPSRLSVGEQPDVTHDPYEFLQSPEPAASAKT

Experiments:
BRD9 [1] = target: T1, BRD9 (Homo sapiens, UniProt Q9H8M2); assay: BRD9 degradation by western blot in SYO-1 cells (Example 12); conditions: SYO-1, 1 or 6 hours
[2] = Interconversion between Enantiomer 1 and Enantiomer 2 in cell medium; conditions: 0.2 μM, cell medium 37° C.; for Mean peak area ratio of Enantiomer 1 over Enantiomer 2 peak area ratio: Enantiomer 2 dosing; for Mean peak area ratio of Enantiomer 2 over Enantiomer 1 peak area ratio: Enantiomer 1 dosing
BRD9 [3] = target: T1, BRD9; assay: Pharmacodynamic BRD9 western blot in SYO-1 xenograft model (Example 13); conditions: for pharmacodynamic activity assessed by BRD9 protein level (western blot): single i.v. dose (Table 6)

COc1cc(-c2cn(C)c(=O)c3cnc(N4CCC4)cc23)cc(OC)c1CN1CCC(CN2CCC3(CC2)CN(c2ccc4c(c2)C(=O)N(C2CCC(=O)NC2=O)C4)C3)CC1 (single isomer, unassigned)
BRD9 degradation compared with racemic compound D1 (BRD9 [1]): slightly better than its racemic parent compound D1 in degrading BRD9 but overall comparable | Mean peak area ratio of Enantiomer 1 over Enantiomer 2 peak area ratio ([2]; 0 h): 0.01 | Mean peak area ratio of Enantiomer 1 over Enantiomer 2 peak area ratio ([2]; 0.5 h): 0.06 | Mean peak area ratio of Enantiomer 1 over Enantiomer 2 peak area ratio ([2]; 6 h): 0.60 | time after a single dose for which BRD9 was degraded (BRD9 [3]; single i.v. dose): up to 72 hours | pharmacodynamic activity assessed by BRD9 protein level (western blot) (BRD9 [3]): significant activity

COc1cc(-c2cn(C)c(=O)c3cnc(N4CCC4)cc23)cc(OC)c1CN1CCC(CN2CCC3(CC2)CN(c2ccc4c(c2)C(=O)N([C@@H]2CCC(=O)NC2=O)C4)C3)CC1 (single isomer, unassigned)
Mean peak area ratio of Enantiomer 2 over Enantiomer 1 peak area ratio ([2]; 0 h): 0.0 | Mean peak area ratio of Enantiomer 2 over Enantiomer 1 peak area ratio ([2]; 0.5 h): 0.0 | pharmacodynamic activity assessed by BRD9 protein level (western blot) (BRD9 [3]): inactive and did not degrade BRD9 protein
